Measurements published in patent WO2012175740A1.

Key:
[1] = biological target: human IgE (Diatec, Oslo, Norway) (human) (UniProt P01854); test: ELISA, competition with coated Fc(epsilon)RI for HuIgE
[2] = biological target: human IgE (Diatec, Oslo, Norway) (human) (UniProt P01854); test: Alphascreen, competitor Omalizumab, biotinylated huIgE
[3] = biological target: human IgE (Diatec, Oslo, Norway) (human) (UniProt P01854); test: cell-based or functional assay

% inhibition by 500 nM [1]	IC50 [1]	% inhibition maximum [2]	block of degranulation at 500 nM [3]	Substance
99.1%	1.17 nM	96.9%	> 95%	Fab obtained by papain digestion of commercially obtained omalizumab
97.7%	0.257 nM			omalizumab (Xolair), obtained from a commercial source (antibody)
